Data: patent US8952169B2 (Genentech, Inc., priority 2012, dated 2015)

Amino acid sequences for entries named in this document (tags omitted).
UniProt Q15858, whole entry, looked up: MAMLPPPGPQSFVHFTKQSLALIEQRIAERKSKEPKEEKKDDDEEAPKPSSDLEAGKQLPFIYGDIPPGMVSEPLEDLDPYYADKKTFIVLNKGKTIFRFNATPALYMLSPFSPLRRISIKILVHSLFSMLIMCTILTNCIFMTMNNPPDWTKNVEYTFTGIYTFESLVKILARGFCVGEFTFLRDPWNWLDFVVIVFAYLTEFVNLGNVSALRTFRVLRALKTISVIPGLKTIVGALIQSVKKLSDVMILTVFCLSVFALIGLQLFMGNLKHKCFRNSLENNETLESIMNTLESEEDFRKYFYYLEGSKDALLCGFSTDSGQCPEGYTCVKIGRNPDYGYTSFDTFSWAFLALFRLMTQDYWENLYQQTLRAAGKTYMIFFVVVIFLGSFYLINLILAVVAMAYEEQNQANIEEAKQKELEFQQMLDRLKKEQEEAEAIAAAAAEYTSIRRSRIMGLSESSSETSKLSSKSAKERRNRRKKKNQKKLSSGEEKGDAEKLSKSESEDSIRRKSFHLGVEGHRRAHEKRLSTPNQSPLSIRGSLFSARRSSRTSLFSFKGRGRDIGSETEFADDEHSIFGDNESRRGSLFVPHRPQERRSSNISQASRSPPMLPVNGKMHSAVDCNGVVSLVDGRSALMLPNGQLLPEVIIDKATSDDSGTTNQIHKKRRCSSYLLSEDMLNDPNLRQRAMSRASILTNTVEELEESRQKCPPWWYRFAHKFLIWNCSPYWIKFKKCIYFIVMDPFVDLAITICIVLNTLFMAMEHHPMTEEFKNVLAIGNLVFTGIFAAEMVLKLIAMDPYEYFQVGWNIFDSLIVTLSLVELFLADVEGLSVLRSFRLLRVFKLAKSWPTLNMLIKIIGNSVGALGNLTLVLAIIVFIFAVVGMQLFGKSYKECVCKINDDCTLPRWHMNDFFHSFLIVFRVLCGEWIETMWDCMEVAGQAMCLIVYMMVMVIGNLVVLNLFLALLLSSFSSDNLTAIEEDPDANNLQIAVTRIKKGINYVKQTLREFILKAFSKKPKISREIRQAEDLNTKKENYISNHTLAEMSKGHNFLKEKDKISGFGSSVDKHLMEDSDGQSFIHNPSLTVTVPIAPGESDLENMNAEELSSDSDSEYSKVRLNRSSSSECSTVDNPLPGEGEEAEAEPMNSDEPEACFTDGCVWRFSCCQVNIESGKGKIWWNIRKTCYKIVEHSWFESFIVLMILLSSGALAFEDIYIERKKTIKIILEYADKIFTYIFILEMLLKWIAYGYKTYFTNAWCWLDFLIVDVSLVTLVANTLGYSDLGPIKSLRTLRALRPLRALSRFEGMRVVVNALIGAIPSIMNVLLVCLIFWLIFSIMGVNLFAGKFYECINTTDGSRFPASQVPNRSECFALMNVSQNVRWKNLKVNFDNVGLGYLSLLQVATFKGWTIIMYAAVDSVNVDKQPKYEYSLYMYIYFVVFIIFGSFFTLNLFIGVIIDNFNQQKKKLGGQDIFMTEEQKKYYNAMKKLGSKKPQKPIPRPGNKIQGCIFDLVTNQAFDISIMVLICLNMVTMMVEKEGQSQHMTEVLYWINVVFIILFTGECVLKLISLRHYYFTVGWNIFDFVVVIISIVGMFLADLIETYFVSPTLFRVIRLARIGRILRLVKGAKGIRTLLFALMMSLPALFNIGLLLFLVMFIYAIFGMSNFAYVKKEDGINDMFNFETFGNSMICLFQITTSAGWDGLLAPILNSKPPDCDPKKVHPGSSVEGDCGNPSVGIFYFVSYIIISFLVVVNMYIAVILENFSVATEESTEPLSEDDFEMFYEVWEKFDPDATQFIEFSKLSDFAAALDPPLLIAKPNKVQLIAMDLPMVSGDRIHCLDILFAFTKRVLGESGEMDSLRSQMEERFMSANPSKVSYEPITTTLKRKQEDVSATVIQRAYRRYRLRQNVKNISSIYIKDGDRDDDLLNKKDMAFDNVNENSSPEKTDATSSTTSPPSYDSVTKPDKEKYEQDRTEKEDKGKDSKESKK

Assays:
[1] = biological target: T1, hNav1.7 (Homo sapiens (Human), UniProt Q15858); assay: Patch voltage clamp electrophysiology (PatchXpress), HEK-293 cells, inactivated state block; format: cell-based; details: β1 coexpressed, holding −60 mV, read-out: EP_PX 293 hNav1.7 (IC50)
[2] = biological target: T1, hNav1.7; assay: Tritiated aryl sulfonamide binding to membranes from cells expressing hNav1.7 and the β1 subunit (competitive binding); details: read-out: NaV1.7 395 Memb Binding (IC50)
Experimental: Tritiated Aryl Sulfonamide Binding to Membranes Isolated from Cells that Heterologously Express hNav1.7 and the β1 Subunit
Preparation of membranes containing recombinantly expressed sodium channels: Frozen recombinant cell pellets were thawed on ice and diluted to 4 times the cell pellet weight with ice cold 50 mM Tris HCl, pH 7.4 buffer. The cell suspensions were homogenized on ice using a motorized glass dounce homogeniser. Homogenates were further diluted 8.4 times with ice cold 50 mM Tris HCl, pH 7.4 buffer and then centrifuged at 200×g at 4° C. for 15 min. The supernatants were collected and centrifuged at 10000×g at 4° C. for 50 min. The pellets were then re-suspended in 100 mM NaCl, 20 mM Tris HCl, pH 7.4 buffer containing 1% v/v protease inhibitors (Calbiochem) and re-homogenized on ice. The homogenized membranes were then processed through a syringe equipped with a 26 gauge needle. Protein concentrations were determined by Bradford Assay and the membranes were stored at −80° C.
Radioligand Binding Studies: Saturation experiments. A representative compound of formula (I) was tritiated. […] Non-specific binding was determined in the presence of 1 μM unlabelled compound. […] [^3H]compound bound to filters was quantified by liquid scintillation counting.
Competitive binding experiments. […] Bound radioactivity was determined by liquid scintillation counting. […]

Row | pIC50 [1] | SMILES | other results
1 | 8.09 | C[C@@H]1[C@H]2C[C@@H](C[C@H]1Oc1cc(F)c(C(=O)NS(C)(=O)=O)cc1Cl)C2(C)C [Example 10] | –
2 | – | CC1CCC(COc2cc(F)c(C(=O)NS(=O)(=O)N3CCC3)cc2C2CC2)CC1 (racemic) [Example 388] | pIC50 ([2]; membranes with hNav1.7 and β1 subunit, [3H]compound displacement, 18 h, room temperature): 8.15
3 | – | C[C@H]1CC[C@H](COc2cc(F)c(C(=O)NS(=O)(=O)N3CCC3)cc2C2CC2)CC1 [Example 420] | pIC50 [2]: 8.22
4 | 7.42 | C[C@@H]1[C@@H](Oc2cc(F)c(C(=O)NS(C)(=O)=O)cc2Cl)C[C@H]2C[C@@H]1C2(C)C [Example 14] | –
5 | 7.82 | O=C(NS(=O)(=O)C1CC1)c1cc(Cl)c(OCC23CC4CC(CC(C4)C2)C3)cc1F | –

pIC50: −log10 of the molar value.
